# Measurements as given in PubChem BioAssay AID436 (Emory University Molecular Libraries Screening Center, 2006).
# By UniProt entry, the sequences of proteins in these tests, tags left out. Where a name states a change or a piece, a line headed by the entry shows the natural chain unless it says otherwise.
# UniProt Q92560: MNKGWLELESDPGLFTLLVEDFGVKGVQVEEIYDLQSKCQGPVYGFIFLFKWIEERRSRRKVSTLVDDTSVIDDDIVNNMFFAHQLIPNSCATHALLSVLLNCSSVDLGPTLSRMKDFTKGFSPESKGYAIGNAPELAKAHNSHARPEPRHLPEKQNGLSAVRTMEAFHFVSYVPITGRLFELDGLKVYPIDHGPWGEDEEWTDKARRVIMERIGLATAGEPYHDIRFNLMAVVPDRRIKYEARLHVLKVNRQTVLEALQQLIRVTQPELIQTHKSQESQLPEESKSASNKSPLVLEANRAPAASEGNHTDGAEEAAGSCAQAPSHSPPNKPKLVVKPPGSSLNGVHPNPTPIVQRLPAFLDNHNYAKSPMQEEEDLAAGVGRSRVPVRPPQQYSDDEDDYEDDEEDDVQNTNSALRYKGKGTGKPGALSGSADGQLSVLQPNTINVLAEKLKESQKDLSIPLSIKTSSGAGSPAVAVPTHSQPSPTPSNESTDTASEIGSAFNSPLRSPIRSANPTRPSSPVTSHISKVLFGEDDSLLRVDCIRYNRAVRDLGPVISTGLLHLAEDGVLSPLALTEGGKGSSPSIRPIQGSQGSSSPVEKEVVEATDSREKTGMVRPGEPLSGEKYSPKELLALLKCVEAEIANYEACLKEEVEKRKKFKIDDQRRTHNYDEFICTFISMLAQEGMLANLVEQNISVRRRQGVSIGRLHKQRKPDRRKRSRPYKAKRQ
# Where “and” joins values, the source holds several entries; their conditions need not be identical. Equal entries are not always repeated. The entries are a selection whose mix differs from that of the whole data set. Calls of active or inactive are those of the source.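 The calls were made as follows: active = activity remaining at or below 50% of control, provided the compound also passes the data quality filters; inactive = the rest, including low values that fail the filters.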
# Target: Ubiquitin carboxyl-terminal hydrolase BAP1 (Homo sapiens) (UniProt Q92560)
# Assay: BAP1 ubiquitin hydrolase activity blockers – biochemical, Ub-AMC fluorescence, kinetic, primary screen (AID 436);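 also: 100% = DMSO wells rate and 0% = substrate alone blank rate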
# Details: recombinant BAP1, Ub-AMC hydrolysis fluorescence kinetic; at 20 µM; active compounds read low
row,Compound,activity remaining (% of control)
1,CN(C(=O)Cc1ccc(Cl)c(Cl)c1)[C@H]1CCCC[C@@H]1N1CCCC1,inactive: 94.3% and inactive: 102%
2,Cc1c2non([O-])c-2c(C)[n+](=O)[n+]1[O-],inactive: 89%
3,CCc1nc2c(n1)c1c(non1O)c1c2no[n+]1[O-],inactive: 96.3%
4,O=C(OC1CN2CCC1CC2)c1cccc(Cl)c1 (stereo not drawn),inactive: 101%
5,O=P(Nc1nccs1)(c1ccccc1)c1ccccc1,inactive: 118%
6,c1nnnn1CCn1cnnn1,inactive: 68.1%
7,COc1ccccc1OP(=O)(Nc1ccccn1)Oc1ccccc1OC,inactive: 68.7%
8,O=P1(Nc2nc3ccc(Cl)cc3s2)COc2ccccc2O1 (stereo not drawn),inactive: 102%
9,CN(C(=O)Cc1ccc(Cl)c(Cl)c1)[C@@H]1CCCC[C@@H]1N1CCCC1,inactive: 97.5%
10,CCOP(=S)(NCC(C)C)OCC,inactive: 56.3%
11,O=P(Nc1nccs1)(c1ccccc1)c1nc2ccccc2s1 (stereo not drawn),inactive: 137%
12,CCOP1(=S)c2c(C)nn(CCC#N)c2N=C(c2ccccc2F)N1C (stereo not drawn),inactive: 109%
13,CCOP1(=S)c2c(C)nn(CCC#N)c2N=C(c2ccc(F)cc2)N1C (stereo not drawn),inactive: 90%
14,CN(C(=O)Cc1ccccc1)[C@@H]1CC[C@]2(CCCO2)C[C@H]1N1CCCC1,inactive: 91.3%
15,CN(C(=O)Cc1ccc(Cl)c(Cl)c1)[C@@H]1CC[C@]2(CCCO2)C[C@H]1N1CCCC1,inactive: 90.2%
16,Cc1cccc(OCC(=O)OC2CN3CCC2CC3)c1 (stereo not drawn),inactive: 153%
17,O=P1(Nc2ccccn2)COc2ccccc2OC1,inactive: 103%
18,CN(CCCl)Cc1cc(Cl)c(NC2=NCCN2)c(Cl)c1,inactive: 91%
19,Clc1n[nH]nc1-c1nn[nH][15n]1,inactive: 95.4%
20,CN(C(=O)Cc1ccc(Cl)c(Cl)c1)[C@@H]1CCCC[C@H]1N1CCCC1,inactive: 99.4%
21,Cc1nn(-c2ccccc2)c2c1P(=O)(N1CCOCC1)N(C)C(c1ccccc1)=N2 (stereo not drawn),inactive: 109%
22,O=P1(Nc2ncccn2)COc2ccccc2OC1,inactive: 96.8%
23,Cc1ccc(OCC(=O)OC2CN3CCC2CC3)cc1 (stereo not drawn),inactive: 183%
24,O=P1(Nc2ccc(Br)cn2)COc2ccccc2OC1,inactive: 105%
25,COP1(=S)c2c(C)nn(CCC#N)c2N=C(c2ccc(F)cc2)N1C (stereo not drawn),inactive: 112%
26,O=C(COc1ccccc1)OC1CN2CCC1CC2 (stereo not drawn),inactive: 96.1%
27,COP(=O)(OC)C(NC(=O)c1ccc(C)cc1)=C(Cl)Cl,inactive: 164%
28,O=C(OC1CN2CCC1CC2)C12CC3CC(CC(C3)C1)C2 (stereo not drawn),inactive: 112%
